This is an account of results in paper PMC5777823 (eLife, 2017).

The assay concerns the target T1, CENP-C^[…] (human).
T1 construct: pGEX-6P-2rbs; named without GST in the assays; source: bacteria, purified as described (Klare et al., 2015)
Nature of the assay: SEC; analytical SEC on Superdex 200 5/150 or Superose 6 5/150; 20 mM HEPES pH 7.5, 300 mM NaCl, 2.5% glycerol, 2 mM TCEP, 4°C; proteins mixed at 6 μM, one hour on ice; fractions by SDS-PAGE and Coomassie. Conditions: both partners purified. (In general: In gel filtration, larger molecules generally elute earlier.)

B1: CENP-L:CENP-N^230-C complex (complex, human)
chain 1: MDSYSAPESTPSASSRPEDYFIGATPLQKRLESVRKQSSFILTPPRRKIPQCSQLQEDVDPQKVAFLLHKQWTLYSLTPLYKFSYSNLKEYSRLLNAFIVAEKQKGLAVEVGEDFNIKVIFSTLLGMKGTQRDPEAFLVQIVSKSQLPSENREGKVLWTGWFCCVFGDSLLETVSEDFTCLPLFLANGAESNTAIIGTWFQKTFDCYFSPLAINAFNLSWMAAMWTACKMDHYVATTEFLWSVPCSPQSLDISFAIHPEDAKALWDSVHKTPGEVTQEEVDLFMDCLYSHFHRHFKIHLSATRLVRVSTSVASAHTDGKIKILCHKYLIGVLAYLTELAIFQIE
chain 2: DINMDSRIIHENIVEKERVQRITQETFGDYPQPQLEFAQYKLETKFKSGLNGSILAEREEPLRCLIKFSSPHLLEALKSLAPAGIADAPLSPLLTCIPNKRMNYFKIRDK
notes: CENP-L, human; CENP-N, human, residues 230 to the C-terminus of the 339-residue protein; Form used in SEC and ITC, named without GST; tag probably cleaved with 3C protease; also called CENP-LN^230-C; CENP-LN^230-C dimer; source: Tnao38 insect cells (baculovirus, co-expressed), purified (GSH-Sepharose, Superdex 200)
B1: the binding result is “binds”.
